## CycPeptMPDB entries from one study

PAMPA measures passive passage through an artificial lipid membrane.
Permeability is in 10^-6 cm/s, converted from the database's log10 values; higher is more permeable.

PAMPA (10^-6 cm/s)	structure (SMILES)
2.2	CC(C)C[C@H]1C(=O)N(C)[C@@H](CC(C)C)C(=O)N2CCC[C@H]2C(=O)N(Cc2ccccc2)CC(=O)N[C@@H](Cc2ccccc2)C(=O)N2CCC[C@@H]2C(=O)N[C@@H](Cc2ccccc2)CC(=O)N1C
6.6	CCCN1CC(=O)N[C@@H](CC(C)C)C(=O)N(Cc2ccccc2)CC(=O)N2CCC[C@@H]2C(=O)N(Cc2ccccc2)CC(=O)N[C@@H](Cc2ccccc2)C1=O
1	CC(C)C[C@@H]1NC(=O)CN(Cc2ccccc2)C(=O)[C@@H](C)NC(=O)[C@@H]2CCCN2C(=O)[C@H](Cc2ccccc2)NC(=O)CN(Cc2ccccc2)C(=O)[C@@H]2CCCN2C1=O
2.2	CC(C)C[C@@H]1C(=O)N(C)[C@@H](CC(C)C)C(=O)N2CCC[C@@H]2C(=O)N[C@H](CC(C)C)C(=O)N[C@@H](Cc2ccccc2)C(=O)N2CCC[C@H]2C(=O)N[C@@H](Cc2ccccc2)CC(=O)N1C
0.46	CCCN1CC(=O)N(Cc2ccccc2)CC(=O)N(Cc2ccccc2)CC(=O)N2CCC[C@H]2C(=O)N[C@@H](CC(C)C)C(=O)N[C@@H](Cc2ccccc2)C(=O)N2CCC[C@@H]2C1=O
14	CCCN1CC(=O)N[C@@H](CC(C)C)C(=O)N(C)[C@@H](CC(C)C)C(=O)N2CCC[C@@H]2C(=O)N(C)[C@H](CC(C)C)C(=O)N[C@@H](Cc2ccccc2)C1=O
2.1	CCCN1CC(=O)N(C)[C@@H](CC(C)C)C(=O)N[C@@H](Cc2ccccc2)CC(=O)N2CCC[C@H]2C(=O)N(Cc2ccccc2)CC(=O)N[C@@H](Cc2ccccc2)C(=O)N2CCC[C@H]2C1=O
0.54	CC(C)C[C@@H]1NC(=O)[C@@H]2CCCN2C(=O)[C@H](CC(C)C)NC(=O)CN(Cc2ccccc2)C(=O)[C@H](C)NC(=O)[C@@H]2CCCN2C(=O)[C@H](Cc2ccccc2)NC1=O
0.28	CC(C)C[C@H]1NC(=O)[C@@H](C)NC(=O)[C@H](Cc2ccccc2)NC(=O)CN(Cc2ccccc2)C(=O)[C@@H]2CCCN2C(=O)C[C@H](Cc2ccccc2)NC1=O
0.44	CC(C)C[C@H]1NC(=O)[C@H]2CCCN2C(=O)CN(Cc2ccccc2)C(=O)CN(Cc2ccccc2)C(=O)C[C@H](Cc2ccccc2)NC(=O)[C@@H]2CCCN2C(=O)[C@H](Cc2ccccc2)NC1=O
0.58	CC(C)C[C@@H]1NC(=O)CN(Cc2ccccc2)C(=O)[C@@H](C)NC(=O)[C@H]2CCCN2C(=O)[C@H](Cc2ccccc2)NC(=O)CN(Cc2ccccc2)C(=O)[C@@H]2CCCN2C1=O
1.7	CC(C)C[C@H]1C(=O)N2CCC[C@H]2C(=O)N(Cc2ccccc2)CC(=O)N[C@@H](Cc2ccccc2)C(=O)N2CCC[C@H]2C(=O)N(C)[C@H](C)C(=O)N(Cc2ccccc2)CC(=O)N1C
1	CC(C)C[C@H]1NC(=O)[C@H]2CCCN2C(=O)[C@@H](CC(C)C)NC(=O)CN(Cc2ccccc2)C(=O)C[C@H](Cc2ccccc2)NC(=O)[C@H](Cc2ccccc2)NC1=O
0.016	C[C@@H]1C(=O)N(Cc2ccccc2)CC(=O)N[C@@H](Cc2ccccc2)CC(=O)N2CCC[C@@H]2C(=O)N(Cc2ccccc2)CC(=O)N[C@@H](Cc2ccccc2)C(=O)N2CCC[C@@H]2C(=O)N1C
3	CC(C)C[C@H]1C(=O)N[C@@H](Cc2ccccc2)C(=O)N[C@H](C)C(=O)N(Cc2ccccc2)CC(=O)N[C@@H](Cc2ccccc2)CC(=O)N2CCC[C@H]2C(=O)N1C
0.85	CCCN1CC(=O)N[C@H](CC(C)C)C(=O)N[C@@H](Cc2ccccc2)CC(=O)N2CCC[C@H]2C(=O)N(Cc2ccccc2)CC(=O)N[C@@H](Cc2ccccc2)C1=O

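Conditions beyond the assay type are not listed; see the original paper. Other peptides of the study may be missing here. Entries at the database's floor value (log10 P of -10) are not listed.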

Values of Townsend et al. 2020, doi:10.26434/chemrxiv.13335941.v1, as listed in CycPeptMPDB.